Drawing on PubChem BioAssay AID588579 (National Center for Advancing Translational Sciences (NCATS), 2011), this text covers activity, negative = inhibition for 48 compounds.

Protein sequences, listed by entry. Tags and fused reporters are not part of them. Lines headed by an entry give the natural chain unless they say otherwise; changes in a name come on top.
UniProt Q9UBT6: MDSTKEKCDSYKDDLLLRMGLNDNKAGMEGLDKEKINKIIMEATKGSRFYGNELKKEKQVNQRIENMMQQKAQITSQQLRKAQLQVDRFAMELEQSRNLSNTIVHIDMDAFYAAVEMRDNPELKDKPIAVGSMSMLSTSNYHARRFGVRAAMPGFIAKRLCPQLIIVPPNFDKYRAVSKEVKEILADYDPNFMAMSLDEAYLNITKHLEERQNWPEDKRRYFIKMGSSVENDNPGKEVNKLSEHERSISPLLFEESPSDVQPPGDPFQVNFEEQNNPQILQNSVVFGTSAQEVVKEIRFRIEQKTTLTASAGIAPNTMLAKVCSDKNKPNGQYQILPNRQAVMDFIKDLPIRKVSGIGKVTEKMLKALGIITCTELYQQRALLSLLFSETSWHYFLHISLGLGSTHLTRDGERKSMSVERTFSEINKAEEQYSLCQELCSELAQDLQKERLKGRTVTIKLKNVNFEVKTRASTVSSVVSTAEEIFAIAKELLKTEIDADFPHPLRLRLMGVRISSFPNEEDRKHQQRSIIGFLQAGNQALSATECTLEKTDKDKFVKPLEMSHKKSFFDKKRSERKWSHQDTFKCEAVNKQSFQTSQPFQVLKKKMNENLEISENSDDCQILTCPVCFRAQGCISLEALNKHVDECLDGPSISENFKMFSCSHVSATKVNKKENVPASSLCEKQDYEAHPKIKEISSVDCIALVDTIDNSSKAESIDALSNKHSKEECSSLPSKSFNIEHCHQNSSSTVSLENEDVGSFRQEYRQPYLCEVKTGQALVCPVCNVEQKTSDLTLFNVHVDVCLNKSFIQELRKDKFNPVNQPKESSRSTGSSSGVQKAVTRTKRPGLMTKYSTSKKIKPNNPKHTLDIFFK

Values joined by “and” are separate entries in the source; they are usually repeats but may differ in a detail not shown here. Equal entries are not always repeated. The entries are a selection whose mix differs from that of the whole data set. Inconclusive results are not listed. Active and inactive are the calls of the source. Calls follow the shape of the dose curve; as a rule, active = well fitted inhibition curve with a large enough effect; inconclusive = small, poorly fitted or top-dose-only effect, or another doubt; inactive = no such curve, though single readings can be large or run the other way.

This assay deals with DNA polymerase kappa (Homo sapiens) (UniProt Q9UBT6). Nature of the assay: qHTS for Inhibitors of Polymerase Kappa. The note with it: purified Pol kappa, fluorescent DNA synthesis assay, 10 min. A digest of the protocol:
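Pol kappa 10 nM + cpd, 15 min RT; start w/ substrate 50 nM final; fluorescence kinetic read, 0 and 10 min. Neg ctrl: buffer, no enzyme.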
Background: Quantitative high-throughput screening tests each substance at several concentrations.
% is scaled to controls: 0 for no effect and ±100 for the full control effect.

`Cc1cc(=O)[nH]c(N[N+](=O)[O-])n1`: for the setting “at 107 µM (top of the series)”, the activity, negative = inhibition is inactive: -12.3%.

Regarding `O=C(OC1CN2CCC1CC2)C12CC3CC(CC(C3)C1)C2` (stereo not given), for the setting “at 107 µM (top of the series)”, the activity, negative = inhibition was inactive: -0.63%.

As for `O=P1(N(CCCl)CCCl)OCCCN1CCCl` (stereo not given), the activity, negative = inhibition (at 107 µM (top of the series)) is inactive: -23.8%.

Turning to `O=P1(N(CCCl)CCCl)Nc2ccccc2N1`, the activity, negative = inhibition (at 107 µM (top of the series)) is inactive: -12.1%.

In the case of `COc1cc(I)ccc1[As](=O)(O)O`, for the setting “at 107 µM (top of the series)”, the activity, negative = inhibition was inactive: -17.8%.

As for `COc1ccc2nc(NP(=O)(c3ccccc3)c3ccccc3)sc2c1`, under “at 107 µM (top of the series)”, the activity, negative = inhibition is inactive: -0.861%.

For `O=[N+]([O-])c1cc(Oc2ccc([N+](=O)[O-])cc2C(F)(F)F)cc([N+](=O)[O-])c1`, the activity, negative = inhibition (at 107 µM (top of the series)) was inactive: -2.46%.

Turning to `COc1ccc(N/C(=N/P(=O)(N2CCOCC2)N2CCOCC2)N2CCOCC2)cc1`, the activity, negative = inhibition (at 107 µM (top of the series)) was inactive: -1.4%.

For the compound `COc1cc(C(=O)NCC2(N3CCOCC3)CCCCC2)ccc1OCC(C)C`, the activity, negative = inhibition (at 107 µM (top of the series)) is inactive: -20.5%.

As for `C[As](=O)(O)c1cccc(C(=O)O)c1`, the activity, negative = inhibition (at 107 µM (top of the series)) was inactive: -18.5%.

As to `O=[As](O)(c1ccc(O)cc1)c1ccccc1O`, the activity, negative = inhibition (at 107 µM (top of the series)) was inactive: -3.01%.

For the compound `Cc1ccc(OP(=O)(Nc2ccc([N+](=O)[O-])cn2)Oc2ccc(C)cc2)cc1`, the activity, negative = inhibition (at 107 µM (top of the series)) is inactive: 3.42%.

As to `Cc1ccc2nc3c(c(C)c2c1)CC(C(Cl)Cl)S3` (stereo not given), the activity, negative = inhibition (at 107 µM (top of the series)) was inactive: -14.1%.

As to `O=Cc1ccc(NCCCl)cc1`, where the note is “at 107 µM (top of the series)”, the activity, negative = inhibition was inactive: -4.23%.

With `ClCCSc1nnc(-c2cccnc2)o1`, where the note is “at 107 µM (top of the series)”, the activity, negative = inhibition is inactive: 0.562%.

With `CC(C)c1ccc(OP(=O)(Nc2ccccn2)Oc2ccccc2F)cc1` (stereo not given), for the setting “at 107 µM (top of the series)”, the activity, negative = inhibition was inactive: 2.47%.

In the case of `COC(=O)C1(C)COP(=O)(N2CCCCCC2)OC1` (stereo not given), the activity, negative = inhibition (at 107 µM (top of the series)) is inactive: -6.77%.

For the compound `O=[N+]([O-])c1cc([N+](=O)[O-])c(-c2ccn[nH]2)s1`, under “at 107 µM (top of the series)”, the activity, negative = inhibition is inactive: -50.7%.

In the case of `O=C(OC1CN2CCC1CC2)c1cccc2[nH]cnc12` (stereo not given), the activity, negative = inhibition (at 107 µM (top of the series)) was inactive: 2.35%.

On to `CCN(CC)C(=S)SC(NC=O)C(Cl)(Cl)Cl` (stereo not given), for which the activity, negative = inhibition (at 107 µM (top of the series)) is inactive: -3.21%.

In the case of `CC(C)NC(=O)NP(=O)(Oc1ccccc1)Oc1ccccc1`, the activity, negative = inhibition (at 107 µM (top of the series)) is inactive: -7.86%.

Turning to `O=P(Nc1nc2ccc(Cl)cc2s1)(c1ccccc1)c1ccccc1`, the activity, negative = inhibition (at 107 µM (top of the series)) is inactive: -2.9%.

With `CCCC1OP(N)(=O)OCC1CC` (stereo not given), under “at 107 µM (top of the series)”, the activity, negative = inhibition was inactive: 3.27%.

As for `O=C(O)c1ccccc1[As](=O)(O)O`, the activity, negative = inhibition (at 107 µM (top of the series)) was inactive: -6.42%.

For `CC(=O)Nc1ccc([As](=O)(O)O)cc1`, where the note is “at 107 µM (top of the series)”, the activity, negative = inhibition is inactive: 3.37%.

As to `CN(C(=O)Cc1ccc(Cl)c(Cl)c1)[C@H]1CCCC[C@@H]1N1CCCC1`, the activity, negative = inhibition is, setting by setting: (at 19.4 µM (top of the series)) inactive: 0.113% [middle of 7 runs]; (at 60.1 µM (top of the series)) inactive: -11.4% and inactive: 7.08% and inactive: 2.68%; (at 107 µM (top of the series)) inactive: -7.95%.

Take `Cc1ccc(NP(=O)(Oc2ccccc2F)Oc2ccccc2F)nc1`: where the note is “at 107 µM (top of the series)”, the activity, negative = inhibition is inactive: -2.8%.

Take `CCOP(=O)(Nc1ccccc1)OCC`: the activity, negative = inhibition (at 107 µM (top of the series)) is inactive: 6.6%.

As to `Cc1cc(SC(NC(=O)c2ccc(F)cc2)C(Cl)(Cl)Cl)ncn1` (stereo not given), where the note is “at 107 µM (top of the series)”, the activity, negative = inhibition is inactive: -8.21%.

Regarding `Nc1cccc2ccc([As](=O)(O)O)cc12`, the activity, negative = inhibition (at 107 µM (top of the series)) was inactive: 10.5%.

With `Cc1ccc(N/C(=N/P(=O)(N2CCOCC2)N2CCOCC2)N2CCOCC2)cc1`, the activity, negative = inhibition (at 107 µM (top of the series)) was inactive: 2.94%.

Regarding `CN(C(=O)Cc1ccc(Cl)c(Cl)c1)[C@H]1CCCC[C@H]1N1CCCC1`, under “at 107 µM (top of the series)”, the activity, negative = inhibition is inactive: -27.5%.

For the compound `O=[N+]([O-])c1cc2c(cc1[N+](=O)[O-])OCO2`, the activity, negative = inhibition (at 107 µM (top of the series)) was inactive: -5.5%.

As to `NC(=O)c1cc([N+](=O)[O-])cc([N+](=O)[O-])c1N`, the activity, negative = inhibition (at 107 µM (top of the series)) was inactive: 0.716%.

In the case of `Clc1ccc(Cl)c(NC2=NCC(CBr)S2)c1` (stereo not given), the activity, negative = inhibition (at 107 µM (top of the series)) was inactive: 1.35%.

On to `CN1CCCC(OC(=O)C(c2ccccc2)c2ccccc2)C1` (stereo not given), for which the activity, negative = inhibition (at 107 µM (top of the series)) was inactive: 6.73%.

On to `Cc1ccc(OP(=O)(Nc2nccs2)Oc2ccc(C)cc2)cc1`, for which, for the setting “at 107 µM (top of the series)”, the activity, negative = inhibition is inactive: -5.92%.

With `COc1ccccc1OP(=O)(Nc1ccc(C)cn1)Oc1ccccc1OC`, for the setting “at 107 µM (top of the series)”, the activity, negative = inhibition is inactive: -0.146%.

Take `O=C(NC(Sc1ccncn1)C(Cl)(Cl)Cl)c1ccccc1` (stereo not given): under “at 107 µM (top of the series)”, the activity, negative = inhibition was inactive: -16.9%.

In the case of `Oc1ccccc1CNc1ccccn1`, the activity, negative = inhibition (at 107 µM (top of the series)) is inactive: -10.8%.

For `CC(C)CC(=O)NC(Sc1ccc(Cl)cc1)C(Cl)(Cl)Cl` (stereo not given), the activity, negative = inhibition (at 107 µM (top of the series)) was inactive: -6.76%.

For the compound `COc1ccc(C2=NCC(CBr)S2)cc1` (stereo not given), where the note is “at 107 µM (top of the series)”, the activity, negative = inhibition was inactive: -2.07%.

On to `Cc1ccc(NP(=O)(Oc2ccccc2)Oc2ccccc2)nc1`, for which the activity, negative = inhibition (at 107 µM (top of the series)) was inactive: 8.13%.

`CC(=O)N1C2C3N(C(C)=O)C1C1N(C(C)=O)C(C(N1C(C)=O)N3C(C)=O)N2C(C)=O`: the activity, negative = inhibition (at 107 µM (top of the series)) was inactive: -3.84%.

Consider `O=[N+]([O-])c1cccc2n[nH]nc12`, for which the activity, negative = inhibition (at 107 µM (top of the series)) was inactive: -10.1%.

Turning to `CCN(/C(=N/P(=O)(N1CCOCC1)N1CCOCC1)N1CCOCC1)c1ccc(OC)cc1`, the activity, negative = inhibition (at 107 µM (top of the series)) is inactive: -2.9%.

Regarding `Nc1ccc([As](=O)(O)c2ccc(N)cc2)cc1`, the activity, negative = inhibition (at 107 µM (top of the series)) was inactive: -1.96%.

For `CC1CCN(C(=O)Oc2c(Cl)cc(Cl)c3cccnc23)CC1`, the activity, negative = inhibition (at 107 µM (top of the series)) is inactive: -18.9%.
